Measurements from patent publication US9636342B2, “Method for treating prostate cancer” (UNIVERSITY OF SOUTH CAROLINA, priority 2012, dated 2017).

Protein sequences, listed by entry. Tags and fused reporters are not part of them. Lines headed by an entry give the natural chain unless they say otherwise; changes in a name come on top.
UniProt Q9BWU1: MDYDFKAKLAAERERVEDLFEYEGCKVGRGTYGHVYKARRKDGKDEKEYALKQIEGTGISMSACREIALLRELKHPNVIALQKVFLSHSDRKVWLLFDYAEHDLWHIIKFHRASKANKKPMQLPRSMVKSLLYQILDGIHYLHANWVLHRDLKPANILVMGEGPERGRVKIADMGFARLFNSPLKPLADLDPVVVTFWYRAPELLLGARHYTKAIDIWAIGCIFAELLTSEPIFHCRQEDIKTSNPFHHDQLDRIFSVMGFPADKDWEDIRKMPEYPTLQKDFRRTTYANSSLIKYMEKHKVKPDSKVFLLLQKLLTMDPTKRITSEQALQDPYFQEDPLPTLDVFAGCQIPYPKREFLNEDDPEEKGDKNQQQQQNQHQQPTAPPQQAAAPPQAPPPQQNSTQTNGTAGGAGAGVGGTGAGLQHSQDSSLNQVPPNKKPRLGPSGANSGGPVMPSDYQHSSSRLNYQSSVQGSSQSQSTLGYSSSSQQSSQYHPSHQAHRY

Target: CDK19 (Homo sapiens, UniProt Q9BWU1)
Assay: Senexin B inhibition of CDK19 kinase activity (Kd)
Type: binding
Source text: The invention provides a method for treating prostate cancer in a subject comprising administering to the subject an effective amount of a selective inhibitor of one or more of CDK8 and CDK19. […] For purposes of the invention, “specific inhibitors of CDK8/19” are small molecule compounds that inhibit CDK8 or CDK8 and CDK19 to a greater extent than they inhibit certain other CDKs. In some embodiments, such compounds further inhibit CDK8 to a greater extent than CDK9. In preferred embodiments, such greater extent is at least 2-fold more than CDK9. Compounds that are useful in the invention are described in co-pending US Patent Publications 20120071477 and 20120071477 and PCT Publication WO2013/116786. Extent of inhibition is measured by the assays taught in co-pending PCT Publication WO2013/116786.
To test the role of CDK8/19 in AR activity, we have used selective small-molecule inhibitors of CDK8/19 developed by Senex Biotechnology, Inc. (Senex) and termed Senexin A (a.k.a. SNX2-1-53) and Senexin B (a.k.a. SNX2-1-165). Senexin A has been described in a recent article^29 and Senexin B in PCT Publication WO2013/116786. These small molecules selectively bind to the ATP pockets of CDK8/19 to inhibit their kinase activity.

Kd: 80 nM
SMILES: CN1CCN(C(=O)c2ccc3cc(CCNc4ncnc5ccc(C#N)cc45)ccc3c2)CC1 [Senexin B]
